{"sequences": {"note": "Amino acid sequences for entries named in this document (tags omitted).", "UniProt Q99720, whole entry": "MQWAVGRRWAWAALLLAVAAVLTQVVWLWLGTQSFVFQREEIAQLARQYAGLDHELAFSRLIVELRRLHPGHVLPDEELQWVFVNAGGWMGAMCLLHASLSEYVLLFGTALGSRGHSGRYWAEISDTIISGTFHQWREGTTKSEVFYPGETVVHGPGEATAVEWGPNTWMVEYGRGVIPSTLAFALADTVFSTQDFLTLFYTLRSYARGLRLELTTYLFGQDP"}, "source": "BindingDB's records for 2172538", "biological_target": "Sigma non-opioid intracellular receptor 1 (Homo sapiens, UniProt Q99720)", "assay": "Binding affinity for sigma opioid receptor using [3H](+)-3-PPP as radioligand", "note": "pIC50: −log10 of the molar value."}
{"compound": "CN(C(=O)Cc1ccc(Cl)c(Cl)c1)[C@@H]1CCCC[C@@H]1N1CCCC1", "values": [{"measurement": "pIC50", "value": 6.71}]}
